Data: patent publication US20100120063A1, “GPCR Arrestin Assays” (DISCOVERX CORPORATION, priority 2008, published 2010)

Sequences of proteins named here, by UniProt entry; tags and fusion partners are left off. A line that says so, or that is headed by a name, gives the form on record, which may keep a tag or linker.
UniProt P41143, with tags, fused parts or gaps: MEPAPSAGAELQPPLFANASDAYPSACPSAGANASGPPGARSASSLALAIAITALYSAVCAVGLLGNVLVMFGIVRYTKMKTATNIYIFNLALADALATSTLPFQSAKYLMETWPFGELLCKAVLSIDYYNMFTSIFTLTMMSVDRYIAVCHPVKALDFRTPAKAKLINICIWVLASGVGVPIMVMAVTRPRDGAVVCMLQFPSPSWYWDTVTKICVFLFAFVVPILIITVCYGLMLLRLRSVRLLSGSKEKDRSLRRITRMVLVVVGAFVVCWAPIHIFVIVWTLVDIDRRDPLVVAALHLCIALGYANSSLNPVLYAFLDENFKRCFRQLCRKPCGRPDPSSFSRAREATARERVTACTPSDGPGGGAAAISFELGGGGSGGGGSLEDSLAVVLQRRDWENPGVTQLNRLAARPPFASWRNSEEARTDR
UniProt P35372, whole entry: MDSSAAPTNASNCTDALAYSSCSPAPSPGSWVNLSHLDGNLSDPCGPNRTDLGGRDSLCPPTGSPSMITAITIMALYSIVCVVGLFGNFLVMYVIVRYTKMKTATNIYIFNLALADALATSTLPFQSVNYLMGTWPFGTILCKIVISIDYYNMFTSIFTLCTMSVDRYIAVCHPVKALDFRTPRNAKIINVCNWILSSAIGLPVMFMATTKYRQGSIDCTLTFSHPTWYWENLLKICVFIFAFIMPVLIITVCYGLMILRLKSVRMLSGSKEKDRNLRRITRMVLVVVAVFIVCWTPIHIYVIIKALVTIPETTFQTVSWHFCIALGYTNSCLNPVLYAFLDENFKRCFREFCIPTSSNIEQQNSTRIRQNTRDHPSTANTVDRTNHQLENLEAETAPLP

Key:
OPRD1-PK = molecular target: T1, OPRD1-PK (Homo sapiens, UniProt P41143); experiment: Arrestin-EA EFC agonist assay, CHO cells expressing OPRD1-PK (FIG. 12A); assay type: cell-based
T1 construct: cloning junction ISFEL + gly-ser linker […]; PK1 (mutated ED, H to R); expressed in transfected cells; host or cells: CHO

OPRM1-PK = molecular target: T2, OPRM1-PK (Homo sapiens, UniProt P35372); experiment: Arrestin-EA EFC agonist assay, U2OS cells expressing OPRM1-PK only; assay type: cell-based
T2 construct: PK (beta-galactosidase ED); expressed in transfected cells; host or cells: U2OS

C[C@@H](NC(=O)[C@@H](N)Cc1ccc(O)cc1)C(=O)NCC(=O)N(C)[C@@H](Cc1ccccc1)C(=O)NCCO [DAMAGO, [D-Ala2,N-Me-Phe4,Gly5-ol]-enkephalin]
EC50 (OPRD1-PK): 36.4 µM

CC(C)C[C@@H](NC(=O)[C@H](Cc1ccccc1)NC(=O)CNC(=O)[C@@H](C)NC(=O)[C@@H](N)Cc1ccc(O)cc1)C(=O)O [DADLE]
EC50 (OPRM1-PK): 0.111 µM
